# According to paper PMC8156151 (The European Respiratory Journal, 2021):
# Tested on: CCL18 (PARC)
# Assay: Plasma biomarker CCL18
# Type: in vivo, human
# Details: 10 mg vs placebo, ANCOVA
# Description: All patients, investigators, sites and study sponsor personnel were blinded to the study group assignments throughout the study. Patients underwent study-specific assessments on days 2, 3, 7, 14 and 15, and a post-study assessment was carried out 26–30 days after the last day of the study period. Assessments included vital signs (supine blood pressure, pulse, oxygen saturation, oral temperature and respiratory rate), spirometry, 12-lead ECG, physical examination, laboratory safety screen (haematology, biochemistry, urinalysis and urinary drugs of abuse screen) and blood sampling for PK measurements. All adverse events and concomitant medications were recorded from the time of the screening visit until the post-study follow-up visit. BAL was performed at day −1 (24 h before the first dose) and at day 14 (2 h after the last dose). […]
# BAL cells were separated from fluid by centrifugation, and cells were collected, stained with antibodies (supplementary material) and then fixed before analysis using a LSR Fortessa flow cytometer (Becton Dickinson, Franklin Lakes, NJ, USA). Data were analysed using FlowJo software (Tree Star, Ashland, OR, USA). […] Gal-3 expression (mean fluorescence intensity) was determined from the macrophage gate (supplementary figures S1 and S2). […] Samples were analysed by magnetic Luminex assay (R&D Systems, Minneapolis, MN, USA) or ELISA. […]
smiles,measurement,value
OC[C@H]1O[C@@H](S[C@@H]2O[C@H](CO)[C@H](O)[C@H](n3cc(-c4cccc(F)c4)nn3)[C@H]2O)[C@H](O)[C@@H](n2cc(-c3cccc(F)c3)nn2)[C@H]1O [TD139],CCL18 (PARC) difference in least square means % baseline (95% CI),−35.0 (−65.8– −4.2) % baseline
